Data set [1] can be described thus: Stability assay pH 9, deamidation by LCMS. In kind it is physicochemical. The settings on record: aqueous buffer pH 9, 25° C.
Data set [2] can be described thus: Stability assay pH 9, remaining parent peak by LCMS. The settings on record: 0 h; aqueous buffer pH 9, 25° C.

On to `CC[C@H](C)[C@H](NC(=O)[C@H](C)N)C(=O)N[C@H]1CSSC[C@@H]2NC(=O)[C@@H]3CSSC[C@@H](C(=O)N[C@@H](CCCNC(=N)N)C(=O)N[C@@H](CCCCN)C(=O)N[C@@H](CC(=O)O)C(=O)N[C@@H](CCC(=O)O)C(=O)N4CCC[C@H]4C(=O)O)NC(=O)[C@H](Cc4ccc(O)cc4)NC(=O)[C@H](CO)NC(=O)[C@H](C(C)C)NC(=O)CNC(=O)[C@H](CC(C)C)NC(=O)[C@H](CO)NC(=O)[C@H](CCC(=O)O)NC(=O)[C@H](C)NC(=O)[C@H](CCCCN)NC(=O)[C@H](CSSC[C@H](NC(=O)[C@@H]4CCCN4C(=O)[C@H](CCCNC(=N)N)NC(=O)[C@H](CC(=O)O)NC(=O)[C@H](C)NC(=O)CNC(=O)[C@H]([C@@H](C)O)NC1=O)C(=O)N[C@@H](C)C(=O)N[C@@H](C)C(=O)N[C@H]1CSSC[C@H](NC1=O)C(=O)N1CCC[C@H]1C(=O)N3)NC(=O)[C@H](CO)NC(=O)[C@H]([C@@H](C)O)NC(=O)CNC(=O)[C@@H]1CCCN1C2=O`, for which the “observed deamidation (percentage of predicted total possible deamidation)” value in data set [1] (0 h), in data set [1] (120 h), in data set [1] (240 h), in data set [1] (360 h) and in data set [1] (480 h) was 0% each time. In data set [2], the “observed overall stability (percentage of remaining parent peak)” value came out at 100%.

As for `CC(C)C[C@@H]1NC(=O)[C@H](CCC(=O)O)NC(=O)[C@H](CC(N)=O)NC(=O)[C@H](CCCNC(=N)N)NC(=O)[C@H](CCC(=O)O)NC(=O)[C@H](CCC(N)=O)NC(=O)[C@H]([C@@H](C)O)NC(=O)[C@@H]2CSSC[C@@H]3NC(=O)[C@@H]4CCCN4C(=O)[C@H](CCC(N)=O)NC(=O)[C@H](CC(=O)O)NC(=O)[C@H](C(C)C)NC(=O)[C@@H]4CCCN4C(=O)[C@H](C(C)C)NC(=O)[C@@H](NC(=O)[C@H](Cc4ccc(O)cc4)NC(=O)[C@H](CCC(N)=O)NC(=O)[C@H](CO)NC(=O)CN)CSSC[C@H](NC(=O)[C@H](CSSC[C@@H](C(=O)N[C@@H](CCCNC(=N)N)C(=O)N[C@@H](C)C(=O)O)NC(=O)[C@H](Cc4ccc(O)cc4)NC(=O)[C@H](Cc4ccc(O)cc4)NC(=O)[C@H](C(C)C)NC(=O)[C@H]([C@@H](C)O)NC(=O)[C@H](Cc4c[nH]cn4)NC(=O)CNC1=O)NC(=O)[C@@H]1CCCN1C(=O)[C@H](CCC(N)=O)NC(=O)[C@H]([C@@H](C)O)NC(=O)[C@H](CC(N)=O)NC(=O)[C@H](CC(C)C)NC(=O)[C@H](CO)NC3=O)C(=O)N[C@@H](CC(=O)O)C(=O)N[C@@H](CC(=O)O)C(=O)N[C@@H](C)C(=O)N[C@@H]([C@@H](C)O)C(=O)N2`, the “observed deamidation (percentage of predicted total possible deamidation)” value in data set [1] (0 h) is listed as 0%; in data set [1] (120 h), 0%; in data set [1] (240 h), 4%; in data set [1] (360 h), 9%; in data set [1] (480 h) it was 16%. The “observed overall stability (percentage of remaining parent peak)” value in data set [2] turned out to be 100%.

These data come from patent publication US20240076327A1 (priority 2020, published 2024).
